Data from patent publication US20070259805A1 (Daiichi Sankyo, published 2007).

How the values were obtained:
Assay in all cases: GST pull-down on glutathione Sepharose 4B; biotin-labelled in vitro translated protein detected with streptavidin-HRP on a blot
[1] = target: T1, HLF (hepatic leukemia factor), synthesized in vitro with Transcend Biotin-Lysyl-tRNA from pcDNA3.1/His (human, UniProt Q16534 1-295, biotinylated lysines incorporated by Transcend Biotin-Lysyl-tRNA; positions not stated)
T1 construct: Made with the TNT quick coupled transcription/translation system from a pcDNA3.1/His plasmid; also called BLF
T1 sequence: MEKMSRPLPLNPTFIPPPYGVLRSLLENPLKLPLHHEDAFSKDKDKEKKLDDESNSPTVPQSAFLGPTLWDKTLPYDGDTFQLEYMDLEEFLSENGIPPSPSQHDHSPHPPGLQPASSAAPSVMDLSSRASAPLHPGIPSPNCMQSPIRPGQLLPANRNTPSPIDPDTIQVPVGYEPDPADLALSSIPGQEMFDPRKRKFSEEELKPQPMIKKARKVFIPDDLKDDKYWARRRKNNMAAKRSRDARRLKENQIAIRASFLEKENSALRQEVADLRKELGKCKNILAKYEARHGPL
Description: (§1) The resin was subjected to centrifugation at 10,000 rpm at 4° C. for 1 minute to recover it, and washed with 0.5 ml of the binding buffer for 4 times. Then, 20 μl of 2×SDS-PAGE sample buffer containing 10% β-mercaptoethanol was added thereto and boiled for 3 minutes. After that, the resin was precipitated by centrifugation, and resultant supernatant was loaded onto 5-20% polyacrylamide gel to separate proteins contained in the supernatant. The proteins were transferred from polyacrylamide gel to PVDF membrane to detect co-precipitated protein by using horseradish peroxidase conjugated streptavidin (streptavidin-HRP) and ECL Western Blotting Detection, System (Amersham Biosciences). Meanwhile, in order to determine the position of HLF, ELK4 or CLOCK separated in polyacrylamide gel, and to confirm the expression amounts of these three kinds of proteins to be enough for carrying out a binding assay, each of the TNT reaction solutions was loaded onto polyacrylamide gel to detect each expressed protein in the same manner as described above.

[2] = target: T2, ELK4 (ETS-domain protein Elk-4), synthesized in vitro with Transcend Biotin-Lysyl-tRNA from pcDNA3.1/V5-His (human, UniProt P28324 1-372, biotinylated lysines incorporated by Transcend Biotin-Lysyl-tRNA; positions not stated)
T2 construct: Made with the TNT quick coupled transcription/translation system; The vector is printed as 'pcDNA3.1N5.His'
T2 sequence: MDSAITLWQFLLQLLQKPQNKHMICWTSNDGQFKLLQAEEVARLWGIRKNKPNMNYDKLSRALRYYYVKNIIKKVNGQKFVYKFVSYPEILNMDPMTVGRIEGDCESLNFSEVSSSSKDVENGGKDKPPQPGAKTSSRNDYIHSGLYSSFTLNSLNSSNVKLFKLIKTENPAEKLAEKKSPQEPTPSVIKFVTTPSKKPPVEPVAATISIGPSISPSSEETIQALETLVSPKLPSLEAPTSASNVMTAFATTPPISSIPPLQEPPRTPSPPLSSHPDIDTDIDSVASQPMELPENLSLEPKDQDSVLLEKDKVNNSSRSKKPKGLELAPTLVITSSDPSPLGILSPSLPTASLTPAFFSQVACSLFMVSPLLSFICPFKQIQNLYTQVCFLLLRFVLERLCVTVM
Description: as §1

[3] = target: T3, CLOCK (circadian locomoter output cycles kaput protein), synthesized in vitro with Transcend … (human, UniProt O15516 1-846, biotinylated lysines incorporated by Transcend Biotin-Lysyl-tRNA; positions not stated)
T3 construct: Made with the TNT quick coupled transcription/translation system from a pcDNA3.1/Myc.His plasmid; also called KIAA 0334
T3 sequence: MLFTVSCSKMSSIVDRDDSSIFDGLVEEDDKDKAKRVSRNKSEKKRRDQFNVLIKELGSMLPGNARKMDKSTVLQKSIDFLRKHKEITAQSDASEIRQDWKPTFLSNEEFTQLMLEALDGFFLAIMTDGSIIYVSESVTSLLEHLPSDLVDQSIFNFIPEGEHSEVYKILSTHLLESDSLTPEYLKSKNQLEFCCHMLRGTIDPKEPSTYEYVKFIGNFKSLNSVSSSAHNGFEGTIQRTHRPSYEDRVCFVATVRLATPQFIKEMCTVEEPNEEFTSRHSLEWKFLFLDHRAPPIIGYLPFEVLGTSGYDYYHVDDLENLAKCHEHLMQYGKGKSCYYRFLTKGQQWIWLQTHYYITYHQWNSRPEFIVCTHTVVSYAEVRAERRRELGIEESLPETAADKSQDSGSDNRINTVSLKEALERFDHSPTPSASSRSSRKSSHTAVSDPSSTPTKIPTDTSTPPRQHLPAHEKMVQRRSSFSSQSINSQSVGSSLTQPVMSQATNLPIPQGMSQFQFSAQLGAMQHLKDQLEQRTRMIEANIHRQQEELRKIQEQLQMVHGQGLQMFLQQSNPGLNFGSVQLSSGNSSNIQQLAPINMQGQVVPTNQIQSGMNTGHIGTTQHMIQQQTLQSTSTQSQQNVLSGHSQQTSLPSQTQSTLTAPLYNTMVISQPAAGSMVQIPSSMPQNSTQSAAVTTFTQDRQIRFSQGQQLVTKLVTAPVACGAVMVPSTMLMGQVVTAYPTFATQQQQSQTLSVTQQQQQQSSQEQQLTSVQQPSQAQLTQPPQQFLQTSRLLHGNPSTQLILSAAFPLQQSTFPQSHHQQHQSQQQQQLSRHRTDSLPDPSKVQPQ
Description: as §1

Measured: binding result

B1: GST (glutathione S-transferase), purified, negative control (other, UniProt P08515 1-218, looked up)
chain: MSPILGYWKIKGLVQPTRLLLEYLEEKYEEHLYERDEGDKWRNKKFELGLEFPNLPYYIDGDVKLTQSMAIIRYIADKHNMLGGCPKERAEISMLEGAVLDIRYGVSRIAYSKDFETLKVDFLSKLPEMLKMFEDRLCHKTYLNGDHVTHPDFMLYDALDVVLYMDPMCLDAFPKLVCFKKRIEAIPQIDKYLKSSKYIAWPLQGWQATFGGGDHPPK
notes: Negative control of the pull-down; Any vector-encoded C-terminal residues are not described
no binding: all assays above
